Where two headings read alike, the source gives them in different places.
Tested on: LS174T tumor
Conditions: for tumor contrast / tumor accumulation: 4 h, both Bevacizumab-treated and saline/vehicle control mice

## WTLRPTLHTDHA [IRdye800-labeled scrambled peptide]
  tumor contrast / tumor accumulation: little tumor contrast
Listed as scrambled peptide
  tumor contrast / tumor accumulation: no tumor accumulation
LS174T tumor mice, 1 nmol dye/mouse
  renal clearance: rapid renal clearance
